Data taken from BindingDB's records for doi:10.1021/jm8006933 (Duquesne University, 2008).

Legend:
[1] = biological target: T1, Bifunctional dihydrofolate reductase-thymidylate synthase (Toxoplasma gondii, UniProt Q07422)
T1 sequence (Q07422 whole entry): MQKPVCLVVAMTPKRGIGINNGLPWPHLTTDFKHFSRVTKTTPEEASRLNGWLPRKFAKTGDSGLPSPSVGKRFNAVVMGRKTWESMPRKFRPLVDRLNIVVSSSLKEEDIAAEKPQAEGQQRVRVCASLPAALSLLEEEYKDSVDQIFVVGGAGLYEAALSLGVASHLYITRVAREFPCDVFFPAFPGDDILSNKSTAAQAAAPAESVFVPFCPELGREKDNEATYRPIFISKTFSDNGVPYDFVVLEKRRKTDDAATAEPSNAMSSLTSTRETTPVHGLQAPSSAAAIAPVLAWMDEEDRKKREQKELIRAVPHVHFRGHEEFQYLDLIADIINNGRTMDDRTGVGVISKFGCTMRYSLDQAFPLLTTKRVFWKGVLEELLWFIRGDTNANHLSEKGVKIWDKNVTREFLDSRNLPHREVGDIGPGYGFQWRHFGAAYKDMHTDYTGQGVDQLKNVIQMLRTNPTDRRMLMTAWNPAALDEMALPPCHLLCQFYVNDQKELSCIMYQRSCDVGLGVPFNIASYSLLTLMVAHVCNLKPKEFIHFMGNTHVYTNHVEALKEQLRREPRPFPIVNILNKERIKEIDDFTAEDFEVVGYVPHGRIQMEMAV

[2] = biological target: T1, Bifunctional dihydrofolate reductase-thymidylate synthase; remark: listed apart in the source

In the case of `Cc1sc2nc(N)[nH]c(=O)c2c1Sc1ccc(C(=O)N(CCC(=O)O)C(=O)O)cc1` [N-{4-[(2-Amino-6-methyl-4-oxo-3,4-dihydrothieno[2,3-d]pyrimidin-5-yl)sulfanyl]benzoyl}-L-glutamic acid], the pIC50 [1] was 7.44 and the pIC50 [2] was 8.10.

pIC50: −log10 of the molar value.
